Earlier results, collected in patent US10400043B2, “Treatment of diffuse large-cell lymphoma with anti-CD20 antibody” (Biogen Inc., priority 1999, dated 2019).

System: B cell lymphoblastic tumor
Settings: mice harboring a B cell lymphoblastic tumor

B1: Y2B8: anti-human CD20 murine monoclonal antibody 2B8 attached to yttrium-[90] via the bifunctional chelator MX-DTPA (conjugate, chains of the INN, looked up)
heavy: QAYLQQSGAELVRPGASVKMSCKASGYTFTSYNMHWVKQTPRQGLEWIGAIYPGNGDTSYNQKFKGKATLTVDKSSSTAYMQLSSLTSEDSAVYFCARVVYYSNSYWYFDVWGTGTTVTVSAPSVYPLAPVCGDTTGSSVTLGCLVKGYFPEPVTLTWNSGSLSSGVHTFPAVLQSDLYTLSSSVTVTSSTWPSQSITCNVAHPASSTKVDKKIEPRGPTIKPCPPCKCPAPNLLGGPSVFIFPPKIKDVLMISLSPIVTCVVVDVSEDDPDVQISWFVNNVEVHTAQTQTHREDYNSTLRVVSALPIQHQDWMSGKEFKCKVNNKDLPAPIERTISKPKGSVRAPQVYVLPPPEEEMTKKQVTLTCMVTDFMPEDIYVEWTNNGKTELNYKNTEPVLDSDGSYFMYSKLRVEKKNWVERNSYSCSVVHEGLHNHHTTKSFSR
light: QIVLSQSPAILSASPGEKVTMTCRASSSVSYMHWYQQKPGSSPKPWIYAPSNLASGVPARFSGSGSGTSYSLTISRVEAEDAATYYCQQWSFNPPTFGAGTKLELKRADAAPTVFIFPPSDEQLKSGTASVVCLLNNFYPREAKVQWKVDNALQSGNSQESVTEQDSKDSTYSLSSTLTLSKADYEKHKVYACEVTHQGLSSPVTKSFN
modifications: yttrium-90 via MX-DTPA chelator
notes: anti-human CD20 murine monoclonal antibody 2B8 attached to yttrium-[90] via the bifunctional chelator MX-DTPA
In the case of B1, the tumor reduction is listed as “significant tumor reduction”.
